# System: FGFR2-expressing cell lines
# Conditions: excess Bliss score, n=14 cell lines, Supplementary Fig. S11
substance,measurement,value
AZD4547,combination effect with inavolisib,synergized

# From paper PMC12770939 (Clinical Cancer Research, 2025)
